This data set can be described thus: Compatibility of nanocrystalline silver with excipients. Format: physicochemical. The note with it: 10% aqueous solution of excipient with nanocrystalline silver, glass vial, 40° C. overnight.

The values below come from US20080044491A1, “METAL-CONTAINING FORMULATIONS AND METHODS OF USE” (priority 2006, published 2008).

Take Hexylene glycol: the “Reaction with nanocrystalline silver” value is “Grey - no discoloration”.
